# Source: patent publication US8859544B2, “Indolizine derivatives, process for the preparation thereof and therapeutic use thereof” (Sanofi, priority 2010, dated 2014)
# Tested on: inflammatory angiogenesis in mice
# Assay: Model of inflammatory angiogenesis in mice
# Assay type: in vivo
# Details: 10 or 30 mg/kg, after one week of daily treatment
# Description: The model is developed on OF1 female mice (Charles River Laboratories) weighing approximately 25 g, and by groups of 12. The animals are anaesthetized with sodium pentobarbital (60 mg/kg; Sanofi Nutrition Santé animale)) intraperitoneally. An air pocket is created on the back of the mouse by subcutaneous injection of 3 ml of air. […] Seven days later, the mice are again anaesthetized and placed on a hot plate at 40° C. One ml of carmine red (Aldrich Chemicals, 5% in 10% of gelatin) is injected into the tail vein. The animals are then placed at 4° C. for 2-3 hours. The skins are then taken and dried for 24 h in an oven at 56° C. The dry tissues are weighed and placed in 1.8 ml of digestion solution (2 mM dithiothreitol, 20 mM Na2HPO4, 1 mM EDTA, 12 U/ml papain) for 24 h. The dye is then dissolved in 0.2 ml of 5M NaOH. The skins are centrifuged at 2000 rpm for 10 min at ambient temperature. The supernatants are filtered through 0.2 μm cellulose acetate membranes. The filtrates are read in a spectrophotometer at 492 nm against a carmine red calibration range. […] The results are expressed as mean values (±sem). […]
# The FGF-R antagonists are evaluated between 1 and 50 mg/kg using methylcellulose/tween (0.6% v/v) as vehicle or any other vehicle which allows the active ingredient to be solubilized. […]
structure (smiles),measurement,value
"COc1c(C)c(C(=O)c2ccc3[nH]c(=O)n(CC(=O)N(C)C)c(=O)c3c2)n2ccccc12 [Compound No. 35, 2-{6-[(1-Methoxy-2-methylindolizin-3-yl)carbonyl]-2,4-dioxo-1,4-dihydroquinazolin-3(2H)-yl}-N,N′-dimethylacetamide]",weight of the granuloma (dry weight of the skin),significantly reduce
